## Measured affinities in a library of Ab-14 heavy chain variants

The measurements come from Li et al. 2023 (doi:10.1038/s41467-023-39022-2) through the FLAb antibody collection.

Antigen: PDVDLGDISGINAS, a 14-residue peptide of the SARS-CoV-2 spike HR2 region.

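Phage display of a naive human antibody library on the peptide gave the parent. The variants were designed computationally from a first round of random CDR variants and then made and measured. Their group label is 14H_GPLM_Gen (GPLM: also part of the Gaussian process libraries; Gen: genetic algorithm; a sequence that several methods proposed may carry one label only). Affinity was read by AlphaSeq, a pooled yeast mating assay with surface-displayed partners. The frequency of each diploid, read from paired DNA barcodes, reflects how well the two displayed proteins bind. Read counts were normalised to the haploid input and turned into Kd by a linear fit to BCL2-family pairs of known affinity, for each replicate. Mating was done six times.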

Parent: Ab-14, a human scFv built as VH, three GGGGS repeats, VL. Only the CDRs of the heavy chain vary.
VH: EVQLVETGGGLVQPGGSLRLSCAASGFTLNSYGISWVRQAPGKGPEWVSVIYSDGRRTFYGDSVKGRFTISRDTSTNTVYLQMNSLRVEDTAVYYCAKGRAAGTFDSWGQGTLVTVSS
VL: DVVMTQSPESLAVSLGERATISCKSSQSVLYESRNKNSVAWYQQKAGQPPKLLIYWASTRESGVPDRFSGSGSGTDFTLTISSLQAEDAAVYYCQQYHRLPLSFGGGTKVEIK

Each variant is given by its three heavy chain CDRs, as the data file delimits them; those of the parent are GFTLNSYGIS, VIYSDGRRTFYGDSVK, GRAAGTFDS. The read-out is the apparent dissociation constant on a log10 scale (nM): the lower, the stronger. Replicates are averaged; those with no signal do not enter the mean. An entry "n.d." has no value in the source: the pair was not observed among the diploids in that replicate. This suggests poor binding but is not conclusive. As a blank, each scFv also met three strains without target: over all heavy chain designs, 1% of these pairings were detected, typically at 2.08 and seldom below 0.84. For each scFv, signals with the empty controls are counted beside the result, with their mean in brackets. A sequence measured in both rounds can read differently, since the two assays cover different ranges. The authors averaged sequences with at least three values out of six and counted those with two or fewer as poor binders. Of ten entries with the parent sequence, four were seen in most replicates (averages 0.34 to 2.37), three in one and three in none, so single entries are noisy.

| # | CDR-H1 | CDR-H2 | CDR-H3 | log10 Kd (nM) by replicate | mean, log10 nM | control signals |
|---|---|---|---|---|---|---|
| 1 | GFSLNNYGIS | VIYSDGRRTFYGDSVK | GRIAGTFDS | 0.43 / 0.43 / 0.48 / 0.33 / 0.95 / 0.77 | 0.57 | 0 of 18 |
| 2 | GFQLNSYGIS | VIYSDGRRTFYADSVK | GQTAGTFDS | 0.64 / 0.01 / 0.47 / 0.42 / 0.32 / 0.22 | 0.35 | 0 of 18 |
| 3 | GFTLESYGIS | VIYADGRRTFYGDSVK | GRAAGTFDR | n.d. / n.d. / n.d. / n.d. / n.d. / n.d. | n.d. | 0 of 18 |
| 4 | GFDLNSYGIS | VIYSDGRRTFYADSVK | GNAAGTFDS | n.d. / n.d. / n.d. / n.d. / n.d. / n.d. | n.d. | 0 of 18 |
| 5 | GFDLNSYGIS | VIYSDGRRTFYSDSVK | GEAAGTFDS | -0.25 / -0.25 / -0.19 / 1.64 / -0.35 / 0.02 | 0.10 | 0 of 18 |
| 6 | GFDLNTYGIS | VIYSDGRRTFYADSVK | GEAAGTFDS | -0.03 / 0.31 / 0.51 / -0.06 / 0.21 / 0.41 | 0.22 | 0 of 18 |
| 7 | GFSLNSYGIS | VIYSDGRRTFYGDSVK | GKSAGTFDS | n.d. / n.d. / n.d. / n.d. / n.d. / n.d. | n.d. | 0 of 18 |
| 8 | GFQLNSYGIS | VIYSDGRRTFYADSVK | GQEAGTFDS | 0.50 / 0.22 / 0.13 / 0.35 / 0.34 / 0.87 | 0.40 | 1 of 18 (2.55) |
| 9 | GFSLNSYGIS | VIYSDGRRTWYGDSVK | GQAAGTFDS | 0.53 / 0.45 / 0.58 / 1.19 / 0.96 / 1.41 | 0.85 | 0 of 18 |
| 10 | GFNLNSYGIS | VIYSDGRRTFYADSVK | GRNAGTFDS | 1.65 / 1.19 / n.d. / 1.45 / n.d. / 1.08 | 1.34 | 0 of 18 |
| 11 | KFDLNSYGIS | VIYSDGRRTFYGDSVK | GRVAGTFDS | n.d. / n.d. / n.d. / n.d. / n.d. / n.d. | n.d. | 0 of 18 |
| 12 | GFSLNSYGIS | VIYSDGRRTFYGDRVK | GEAAGTFDS | 0.87 / 0.41 / 0.85 / 0.40 / 0.62 / 0.33 | 0.58 | 0 of 18 |
| 13 | GFSLNSYGIS | VIYSDGRRTFYADSVK | GQAAGTFDN | 0.88 / 0.04 / n.d. / 0.57 / 1.19 / n.d. | 0.67 | 0 of 18 |
| 14 | GFSLNSYGIS | VIYSDGRRTFYGDSVK | GRAAGTFDQ | 1.38 / 1.00 / 1.74 / 1.04 / 1.43 / 1.55 | 1.36 | 0 of 18 |
| 15 | GFTLNSYGIS | VIYSDGRRTFYSDSVK | GKAAGTFDV | 0.51 / 0.47 / 0.61 / 0.11 / 0.63 / 0.76 | 0.52 | 0 of 18 |
| 16 | GFSLNSYGIS | VIYSDGRRTFYVDSVK | GSAAGTFDS | n.d. / -0.02 / -0.16 / 0.04 / 1.19 / 1.40 | 0.49 | 0 of 18 |
| 17 | GFSLNSYGIS | VIYSDGRRTFYSDAVK | GKAAGTFDS | n.d. / n.d. / 2.03 / 2.40 / 1.89 / n.d. | 2.11 | 0 of 18 |
| 18 | GFTLNSYGIS | VIYSDGRRTFYHDSVK | GRVAGTFDT | n.d. / 1.60 / 0.22 / 0.82 / 0.90 / -0.04 | 0.70 | 1 of 18 (1.66) |
| 19 | GFSLNSYGIS | VIYSDGRRTFYGDAVK | GQTAGTFDS | 0.16 / 0.56 / 0.86 / 1.28 / 0.42 / 1.35 | 0.77 | 0 of 18 |
| 20 | GFSLNAYGIS | VIYSDGRRTFYGDSVK | GEAAGTFDS | 0.40 / 0.57 / 0.27 / 0.32 / 0.13 / 0.30 | 0.33 | 1 of 18 (3.34) |
| 21 | GFSLNTYGIS | VIYSDGRRTFYADSVK | GKAAGTFDS | -0.03 / 0.09 / 0.12 / -0.14 / -0.27 / 0.02 | -0.03 | 0 of 18 |
| 22 | GFSLNSYGIS | VIYSDGRRTFYSDSVK | GKAAGTFDS | 0.31 / 0.13 / 0.21 / 0.09 / 0.07 / 0.59 | 0.23 | 0 of 18 |
| 23 | GFTLNSYGIS | VIYADGRRTFYGDSVK | GKAAGTFDK | n.d. / 0.97 / 0.52 / 1.09 / 0.55 / 0.75 | 0.78 | 0 of 18 |
| 24 | GFTLNSYGIS | VIYSDGRRTFYSDAVK | GEAAGTFDS | 1.00 / 0.89 / 0.54 / 0.39 / 0.26 / 1.01 | 0.68 | 0 of 18 |
| 25 | GFTLNSYGIS | VIYSDGRRTFYGDSVK | GKIAGTFDS | n.d. / n.d. / n.d. / n.d. / n.d. / 1.40 | 1.40 | 0 of 18 |
| 26 | GFWLNDYGIS | VIYSDGRRTFYGDSVK | GRTAGTFDT | 0.94 / 1.25 / 0.64 / 2.49 / 0.45 / 0.63 | 1.07 | 0 of 18 |
| 27 | GFSLNWYGIS | VIYSDGRRTFYADSVK | GRTAGTFDS | n.d. / n.d. / n.d. / n.d. / n.d. / n.d. | n.d. | 0 of 18 |
| 28 | GFVLNEYGIS | VIYSDGRRTFYGDSVK | GQAAGTFDS | 0.61 / 2.05 / 1.13 / 1.48 / 1.26 / 2.26 | 1.47 | 0 of 18 |
| 29 | GFDLNSYGIS | VIYSDGRRTFYTDSVK | GKAAGTFDS | -0.17 / -0.02 / -0.09 / -0.38 / 0.03 / 0.16 | -0.08 | 0 of 18 |
| 30 | GFSLNEYGIS | VIYADGRRTFYGDSVK | GRAAGTFDS | -0.67 / -0.13 / -0.86 / -0.90 / -0.30 / -0.60 | -0.58 | 0 of 18 |
| 31 | GFTLESYGIS | VIYSDGKRTFYADSVK | GRAAGTFDS | 1.06 / 1.40 / 0.20 / 0.50 / 0.88 / 0.89 | 0.82 | 0 of 18 |
| 32 | GFSLNEYGIS | VIYSDGYRTFYGDSVK | GRTAGTFDS | 0.46 / 0.35 / -0.06 / 0.11 / 0.24 / 0.31 | 0.24 | 0 of 18 |
| 33 | GFELNEYGIS | VIYSDGRRTFYGDSVK | GRAAGTFDK | 0.81 / 0.54 / 0.94 / 0.62 / 0.71 / 1.02 | 0.77 | 0 of 18 |
| 34 | GFHLNEYGIS | VIYSDGRRTFYGDSVK | GRTAGTFDT | -0.56 / -0.30 / 0.27 / -0.26 / -0.27 / -0.75 | -0.31 | 0 of 18 |
| 35 | GFSLNSYGIS | VIYSDGRRTFYGDAVK | GQAAGTFDS | n.d. / n.d. / n.d. / -0.40 / 0.22 / -0.25 | -0.14 | 0 of 18 |
| 36 | GFSLNSYGIS | VIYSDGRRTFYADDVK | GTAAGTFDS | 0.40 / 0.46 / 0.43 / 0.16 / 0.42 / 0.54 | 0.40 | 2 of 18 (2.27) |
| 37 | GFNLNNYGIS | VIYSDGRRTFYGDSVK | GQAAGTFDS | n.d. / n.d. / n.d. / n.d. / n.d. / n.d. | n.d. | 0 of 18 |
| 38 | GFSLNSYGIS | VIYSDGRRTFYKDSVK | GNAAGTFDS | 2.45 / 0.64 / 1.69 / 1.34 / 1.55 / 0.84 | 1.42 | 0 of 18 |
| 39 | GFSLNSYGIS | VIYSDGRRTFYADSVK | GRLAGTFDS | -0.22 / -0.17 / -0.07 / -0.33 / -0.12 / -0.13 | -0.17 | 0 of 18 |

The first 5 entries again:

CDR-H1	CDR-H2	CDR-H3	log10 Kd (nM) by replicate	mean, log10 nM	control signals
GFSLNNYGIS	VIYSDGRRTFYGDSVK	GRIAGTFDS	0.43 / 0.43 / 0.48 / 0.33 / 0.95 / 0.77	0.57	0 of 18
GFQLNSYGIS	VIYSDGRRTFYADSVK	GQTAGTFDS	0.64 / 0.01 / 0.47 / 0.42 / 0.32 / 0.22	0.35	0 of 18
GFTLESYGIS	VIYADGRRTFYGDSVK	GRAAGTFDR	n.d. / n.d. / n.d. / n.d. / n.d. / n.d.	n.d.	0 of 18
GFDLNSYGIS	VIYSDGRRTFYADSVK	GNAAGTFDS	n.d. / n.d. / n.d. / n.d. / n.d. / n.d.	n.d.	0 of 18
GFDLNSYGIS	VIYSDGRRTFYSDSVK	GEAAGTFDS	-0.25 / -0.25 / -0.19 / 1.64 / -0.35 / 0.02	0.10	0 of 18